Literature values as cited in patent US20090304869A1, “Peptides Having an Ace Inhibiting Effect” (priority 2005, published 2009).

By UniProt entry, the sequences of proteins in these tests, tags left out. Residues count along the entry.
UniProt P12821, 30-1306 limits assumed: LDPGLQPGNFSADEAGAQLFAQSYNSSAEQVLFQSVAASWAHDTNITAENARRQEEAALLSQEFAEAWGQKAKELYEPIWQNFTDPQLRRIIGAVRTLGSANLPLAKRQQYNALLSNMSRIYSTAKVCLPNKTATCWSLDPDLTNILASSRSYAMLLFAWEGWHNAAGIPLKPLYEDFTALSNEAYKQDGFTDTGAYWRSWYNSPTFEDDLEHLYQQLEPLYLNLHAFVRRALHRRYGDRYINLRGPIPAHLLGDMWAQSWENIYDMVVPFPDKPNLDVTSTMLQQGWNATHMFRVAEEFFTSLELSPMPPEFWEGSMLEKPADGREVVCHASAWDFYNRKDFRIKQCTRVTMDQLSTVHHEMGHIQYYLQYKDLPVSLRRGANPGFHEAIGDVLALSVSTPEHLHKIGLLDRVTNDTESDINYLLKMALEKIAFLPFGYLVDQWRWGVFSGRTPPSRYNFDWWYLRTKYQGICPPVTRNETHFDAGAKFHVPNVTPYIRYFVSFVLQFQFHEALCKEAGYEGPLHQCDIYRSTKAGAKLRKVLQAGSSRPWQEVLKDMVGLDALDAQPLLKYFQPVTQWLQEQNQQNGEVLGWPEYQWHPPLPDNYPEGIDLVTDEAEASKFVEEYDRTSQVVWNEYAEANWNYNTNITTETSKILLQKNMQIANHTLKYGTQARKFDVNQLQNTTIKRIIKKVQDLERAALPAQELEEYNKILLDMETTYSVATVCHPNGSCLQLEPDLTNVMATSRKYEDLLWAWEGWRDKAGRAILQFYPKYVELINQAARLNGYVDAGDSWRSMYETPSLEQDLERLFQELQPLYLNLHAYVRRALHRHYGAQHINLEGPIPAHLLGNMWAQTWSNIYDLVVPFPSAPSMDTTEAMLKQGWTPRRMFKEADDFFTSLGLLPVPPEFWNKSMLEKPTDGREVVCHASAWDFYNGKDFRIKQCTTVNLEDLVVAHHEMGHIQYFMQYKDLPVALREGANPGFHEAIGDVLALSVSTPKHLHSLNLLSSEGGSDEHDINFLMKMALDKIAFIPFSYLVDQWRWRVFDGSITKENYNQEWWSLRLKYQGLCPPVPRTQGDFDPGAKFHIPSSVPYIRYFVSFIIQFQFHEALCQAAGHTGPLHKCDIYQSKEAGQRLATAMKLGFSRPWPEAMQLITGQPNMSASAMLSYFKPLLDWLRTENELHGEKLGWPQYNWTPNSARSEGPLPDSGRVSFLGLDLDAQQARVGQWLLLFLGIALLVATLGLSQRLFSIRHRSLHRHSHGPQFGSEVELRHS

Biological target: ACE (Homo sapiens, UniProt P12821)
Settings: read-out: IC50 values reported earlier as ACEI peptides; literature

Compound: CC(C)C[C@H](N)C(=O)N1CCC[C@H]1C(=O)N1CCC[C@H]1C(=O)O
- IC50: 9.6 µM
